Bioassay records (PubChem)
esBAF inh: Bmi1 luciferase reporter increase in mESCs, primary screen, esBAF inhibitor project, mouse ES cells, Bmi1 luciferase knock-in, single point; 350,000 tested, 2% active; 24 h; 100% = twice the neutral-well signal; reporter increase, % at 12.5 µM; in the data active = activation above about 40%; inconclusive = no clear call, values can overlap the other calls;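 also: 0% = median of the plate's neutral control wells and 100% = double that signal; a rise in the Bmi1 reporter signal indicates esBAF inhibition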
PglD inh: C. jejuni PglD acetyltransferase inhibitors, primary screen, biochemical, DTNB colorimetric, single point. UDP-N-acetylbacillosamine N-acetyltransferase PglD (Campylobacter jejuni). purified PglD enzyme, DTNB colorimetric CoA detection. inhibition, % at 12.5 µM. 360,000 tested, 0.098% active. AID 602405, 2012; in the data active = inhibition above about 16%, passing the limit was not always enough; inconclusive = no clear call, values can overlap the other calls
Wnt bcat act: Wnt/beta-catenin pathway activators, primary screen, cell-based, plate reader, single point; 300,000 tested, 1.2% active; Wnt/beta-catenin reporter cell assay, activator; activation, % at 9.35 µM; AID 743398, 2014; in the data active = activation above about 30%, passing the limit was not always enough; inconclusive = no clear call, values can overlap the other calls;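 also: 0% = neutral control wells and 100% = positive control wells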
miR122 inh: miR-122 Renilla sensor signal increase in Huh7, primary screen, miR-122 inhibitor project, cell-based, single point, plate reader; Huh7 miR-122 Renilla luciferase sensor, 48 h; neutral wells = 0, positive control = 100; activation (reporter increase), % at 12.5 µM; 340,000 tested, 0.3% active; AID 602342, 2012;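 active = mean replicate activation score at least 90 and every replicate individually at or above 90; inconclusive = only one of the two criteria met; inactive = neither criterion met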;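 also: higher luciferase means less miR-122 activity so hits act as miR-122 inhibitors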
MITF act: activators of MITF-driven TRPM1 promoter reporter, primary screen, cell-based, SK-MEL-5, luciferase, single point; SK-MEL-5 TRPM1-promoter luciferase, 24 h; % of positive control, neutral wells = 0; 300,000 tested, 0.75% active; activation, % at 12.5 µM;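 active = mean activation of at least 80% with every replicate also reaching 80%; inconclusive = mean reaches 80% but some replicate falls short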;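 also: 0% = neutral control wells and 100% = parthenolide positive control wells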
UUG fidelity: modulators of start codon recognition fidelity in yeast; AID 602363; activity score, % at 18.7 µM; S. cerevisiae UUG-firefly luciferase reporter, luminescence/redox ratio; actives 0.13% (n = 350,000);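 active = replicate mean at a twofold rise or more, about +100% in these data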;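 note: firefly luciferase made from a UUG start codon reports start codon fidelity; reporter light over untreated wells divided by growth signal over untreated wells; some hits fall short of that in this replicate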
* hit, by the source's call; ? = inconclusive; / = not tested or not shown; [ ] = dose if it differs, or a comment. Hits are enriched below; roughly 2.8% of the tested compounds scored in any of these assays.

| SMILES | Wnt bcat act | esBAF inh | PglD inh | miR122 inh | MITF act | UUG fidelity |
| --- | --- | --- | --- | --- | --- | --- |
| O=C(Cn1cc(C(F)(F)F)cc(Cl)c1=O)NCc1ccc(F)cc1 | 9.2 | 57.6* | -4.1 | / | 48.4 | -8.0 |
| O=C(Cn1cc(C(F)(F)F)cc(Cl)c1=O)NCCc1ccc(Cl)cc1Cl | 4.6 | / | / | / | 12.2 | / |
| O=C(CSC1=NCCN1)Nc1cccc([N+](=O)[O-])c1 | 40.9* | -4.2 | 3.5 | -1.4 | -36.9 | -12.7 |
| O=C(CSC1=NCCN1)Nc1ccccc1[N+](=O)[O-] | 4.0 | / | / | / | -6.0 | / |
| CCC(=O)Nc1cccc(NC(=S)NC(=O)c2ccc(Cl)cc2)c1 | -3.3 | 61.1* | -1.8 | -4.5 | 54.1 | -4.2 |
| CCOc1ccc(C(=O)Nc2ccc3[nH]ncc3c2)cc1 | 54.6* | -37.4 | -3.3 | 9.9 | 55.5 | -21.3 |
| CCOc1cccc(C(=O)NC(=S)Nc2cccc(C)c2)c1 | 21.8 | 42.4* | / | -2.4 | 31.3 | / |
| CCC(=O)Nc1cccc(NC(=S)NC(=O)c2ccc(Cl)cc2Cl)c1 | / | / | / | / | 47.7 | / |
| CCCOc1cccc(C(=O)NC(=S)Nc2cccc(C(F)(F)F)c2)c1 | -1.4 | -3.3 | 5.1 | 4.2 | 6.7 | -12.9 |
| CCC(=O)Nc1ccc(C(=O)Nc2cccc(C)n2)cc1 | 29.8 | 42.4 | / | 218.5* | 65.6 | / |
| CS(=O)(=O)N1[C@H](C(=O)NC2CCC2)[C@@H](CO)[C@@H]2Cn3c(ccc(-c4ccccc4)c3=O)[C@@H]21 | / | -0.6 | -1.1 | 7.2[16.7 µM] | / | / |
| CCS(=O)(=O)N[C@@H]1CC[C@@H](CC(=O)Nc2ccc(-c3ccccc3)cc2)O[C@@H]1CO | / | -4.3 | 0.0 | 4.8[16.7 µM] | / | -11.9 |
| COc1cccc(NC(=O)C[C@H]2CC[C@@H]3[C@H](COc4ccc(NC(=O)C5CCCCC5)cc4C(=O)N3C)O2)c1 | / | 7.2 | -3.1 | -9.0[16.7 µM] | / | 11.9 |
| C[C@@H]1CN([C@H](C)CO)C(=O)Cc2cc(NS(=O)(=O)c3ccccc3)ccc2O[C@H]1CN(C)CC1CC1 | / | 5.5 | 0.5 | 9.8[16.7 µM] | / | -11.6 |
| CCOc1cccc(C(=O)Nc2cccc(C(C)=O)c2)c1 | 14.9 | -9.1 | 2.5 | 4.6 | 9.5 | -8.9 |
| CCOc1cccc(C(=O)Nc2ccc3ccccc3c2)c1 | 35.7* | -30.2 | 3.2 | / | / | -38.8 |
| O=C(Nc1ccc2c(c1)OCCO2)c1cncc(Br)c1 | 40.9* | 3.8 | -3.3 | 3.1 | / | -37.1 |
| O=C(Nc1ccc2c(c1)OCO2)c1cncc(Br)c1 | / | 36.3 | -2.1 | -2.3 | 6.4 | 3.3 |
| CCOc1cccc(C(=O)Nc2ccc3c(c2)OCCO3)c1 | 41.8* | -44.5 | 1.6 | 5.4 | / | -44.9 |
| CCN(CC)c1ccc(NC(=O)c2cnn(CC)c2)cc1 | / | 53.6* | / | -7.1 | 14.4 | / |
| CN(C)C(=O)[C@H]1[C@H](CO)[C@H]2Cn3c(cccc3=O)[C@H]2N1C(=O)C1CCCCC1 | / | 3.7 | -0.7 | -5.0[16.7 µM] | / | -9.5 |
| COCC(=O)NC[C@@H]1[C@@H](c2ccc(-c3ccccc3)cc2)[C@@H](CO)N1C(C)=O | / | 4.5 | -1.4 | 0.4[16.7 µM] | / | 0.3 |
| C[C@@H]1CN([C@H](C)CO)C(=O)c2cc(NC(=O)c3ccccc3)ccc2O[C@@H](C)CCCCO[C@H]1CN(C)S(=O)(=O)c1ccc(Cl)cc1 | / | -0.7 | 4.5 | -8.8[16.7 µM] | / | -12.4 |
| CCOc1cccc(C(=O)Nc2ccc(N(CC)CC)cc2)c1 | / | 43.6* | -5.8 | 2.9 | 36.9 | -20.5 |
| CCOc1cccc(C(=O)Nc2ccc(N3CCCC3)cc2)c1 | 2.8 | 7.8 | -5.3 | 2.3 | / | -8.2 |
| CCC(C)c1ccc(Nc2ncccc2C#N)cc1 (centres undefined) | / | 80.8* | 0.7 | / | 49.2 | -7.7 |
| O=C(Nc1nc2ccccc2[nH]1)c1ccccc1O | 42.3* | / | / | / | ? | / |
| O=C(Nc1nc2ccccc2[nH]1)c1cccc(Cl)c1 | 31.6* | 14.1 | 4.7 | -0.5 | / | -19.2 |
| O=C(Nc1nc2ccccc2[nH]1)c1ccc(Cl)cc1 | -2.5 | -26.6 | -4.0 | -2.7 | -3.3 | -53.4 |
| Cc1c(/C=N/Nc2nc3ccccc3[nH]2)c2ccccc2n1C | 11.6 | 14.0 | -2.6 | -21.1 | / | -28.9 |
| Cc1ccsc1/C=N/Nc1nc2ccccc2[nH]1 | 115.2* | / | 3.2 | -1.3 | 48.4 | -28.8 |

Entries of single compounds, looked up by structure. Values in the order: Wnt bcat act	esBAF inh	PglD inh	miR122 inh	MITF act	UUG fidelity
`O=C(Nc1nc2ccccc2[nH]1)c1cccc(Cl)c1` reads 31.6*	14.1	4.7	-0.5	/	-19.2
`COCC(=O)NC[C@@H]1[C@@H](c2ccc(-c3ccccc3)cc2)[C@@H](CO)N1C(C)=O` reads /	4.5	-1.4	0.4[16.7 µM]	/	0.3

Two entries picked at random from the list so far:
| SMILES | Wnt bcat act | esBAF inh | PglD inh | miR122 inh | MITF act | UUG fidelity |
| --- | --- | --- | --- | --- | --- | --- |
| CCOc1cccc(C(=O)Nc2ccc3ccccc3c2)c1 | 35.7* | -30.2 | 3.2 | / | / | -38.8 |
| CCOc1ccc(C(=O)Nc2ccc3[nH]ncc3c2)cc1 | 54.6* | -37.4 | -3.3 | 9.9 | 55.5 | -21.3 |
